Sequences of proteins named here, by UniProt entry; tags and fusion partners are left off.
UniProt P50406, whole entry: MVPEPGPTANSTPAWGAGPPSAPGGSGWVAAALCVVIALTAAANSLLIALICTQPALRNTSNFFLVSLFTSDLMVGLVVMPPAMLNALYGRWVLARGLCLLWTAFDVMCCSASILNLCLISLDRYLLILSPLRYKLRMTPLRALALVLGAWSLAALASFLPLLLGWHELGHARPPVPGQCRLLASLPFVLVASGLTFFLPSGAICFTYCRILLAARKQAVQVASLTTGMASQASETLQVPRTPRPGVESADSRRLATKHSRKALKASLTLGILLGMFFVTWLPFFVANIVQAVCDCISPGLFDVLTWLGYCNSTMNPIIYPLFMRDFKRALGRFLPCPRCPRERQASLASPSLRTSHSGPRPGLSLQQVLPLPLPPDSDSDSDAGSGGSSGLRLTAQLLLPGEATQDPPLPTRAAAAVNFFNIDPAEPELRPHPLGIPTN

The target in this assay is human 5-HT6R (Homo sapiens, UniProt P50406). Briefly: 5-HT6R radioligand competitive binding assay ([3H]LSD). Particulars: read-out: Ki ± SEM (5-HT6R), membranes of transfected HEK-293 cells, mean of two to four experiments in triplicate.
As for `CC(C)N(CCn1cnc2cc(C(=O)Nc3ccccc3)ccc21)C(C)C`, the Ki is above 500 nM.

Regarding `O=C(Nc1ccccc1)c1ccc2c(c1)ncn2CCN1CCCCC1`, the Ki is above 500 nM.

In the case of `O=C(Nc1ccccc1)c1ccc2ncn(CCN3CCCCC3)c2c1`, the Ki is above 500 nM. Take `CC(C)N(CCn1cnc2ccc(C(=O)Nc3ccccc3)cc21)C(C)C`: the Ki is above 500 nM.

The term Ki denotes the dissociation constant of the complex between target and ligand, obtained from inhibition or displacement.

The values are drawn from publication PMC5259792, “A new serotonin 5-HT6 receptor antagonist with procognitive activity – Importance of a halogen bond interaction to stabilize the binding” (Scientific Reports, 2017).
